In publication PMC3799459:

Substrate: C[S+](CC[C@H](N)C(=O)[O-])C[C@H]1O[C@@H](n2cnc3c(N)ncnc32)[C@H](O)[C@@H]1O
Assay: Km determination of DNMT1 substrates
Assay type: biochemical, human
Conditions: other: SAM 0.25-20 µM, 1.0 µM hemimethylated Dup_1

B1: DNMT1 (Homo sapiens) (protein)
chain: MPARTAPARVPTLAVPAISLPDDVRRRLKDLERDSLTEKECVKEKLNLLHEFLQTEIKNQLCDLETKLRKEELSEEGYLAKVKSLLNKDLSLENGAHAYNREVNGRLENGNQARSEARRVGMADANSPPKPLSKPRTPRRSKSDGEAKPEPSPSPRITRKSTRQTTITSHFAKGPAKRKPQEESERAKSDESIKEEDKDQDEKRRRVTSRERVARPLPAEEPERAKSGTRTEKEEERDEKEEKRLRSQTKEPTPKQKLKEEPDREARAGVQADEDEDGDEKDEKKHRSQPKDLAAKRRPEEKEPEKVNPQISDEKDEDEKEEKRRKTTPKEPTEKKMARAKTVMNSKTHPPKCIQCGQYLDDPDLKYGQHPPDAVDEPQMLTNEKLSIFDANESGFESYEALPQHKLTCFSVYCKHGHLCPIDTGLIEKNIELFFSGSAKPIYDDDPSLEGGVNGKNLGPINEWWITGFDGGEKALIGFSTSFAEYILMDPSPEYAPIFGLMQEKIYISKIVVEFLQSNSDSTYEDLINKIETTVPPSGLNLNRFTEDSLLRHAQFVVEQVESYDEAGDSDEQPIFLTPCMRDLIKLAGVTLGQRRAQARRQTIRHSTREKDRGPTKATTTKLVYQIFDTFFAEQIEKDDREDKENAFKRRRCGVCEVCQQPECGKCKACKDMVKFGGSGRSKQACQERRCPNMAMKEADDDEEVDDNIPEMPSPKKMHQGKKKKQNKNRISWVGEAVKTDGKKSYYKKVCIDAETLEVGDCVSVIPDDSSKPLYLARVTALWEDSSNGQMFHAHWFCAGTDTVLGATSDPLELFLVDECEDMQLSYIHSKVKVIYKAPSENWAMEGGMDPESLLEGDDGKTYFYQLWYDQDYARFESPPKTQPTEDNKFKFCVSCARLAEMRQKEIPRVLEQLEDLDSRVLYYSATKNGILYRVGDGVYLPPEAFTFNIKLSSPVKRPRKEPVDEDLYPEHYRKYSDYIKGSNLDAPEPYRIGRIKEIFCPKKSNGRPNETDIKIRVNKFYRPENTHKSTPASYHADINLLYWSDEEAVVDFKAVQGRCTVEYGEDLPECVQVYSMGGPNRFYFLEAYNAKSKSFEDPPNHARSPGNKGKGKGKGKGKPKSQACEPSEPEIEIKLPKLRTLDVFSGCGGLSEGFHQAGISDTLWAIEMWDPAAQAFRLNNPGSTVFTEDCNILLKLVMAGETTNSRGQRLPQKGDVEMLCGGPPCQGFSGMNRFNSRTYSKFKNSLVVSFLSYCDYYRPRFFLLENVRNFVSFKRSMVLKLTLRCLVRMGYQCTFGVLQAGQYGVAQTRRRAIILAAAPGEKLPLFPEPLHVFAPRACQLSVVVDDKKFVSNITRLSSGPFRTITVRDTMSDLPEVRNGASALEISYNGEPQSWFQRQLRGAQYQPILRDHICKDMSALVAARMRHIPLAPGSDWRDLPNIEVRLSDGTMARKLRYTHHDRKNGRSSSGALRGVCSCVEAGKACDPAARQFNTLIPWCLPHTGNRHNHWAGLYGRLEWDGFFSTTVTNPEPMGKQGRVLHPEQHRVVSVRECARSQGFPDTYRLFGNILDKHRQVGNAVPPPLAKAIGLEIKLCMLAKARESASAKIKEEEAAKD
Km: 4.4 ± 0.5 µM
